# AlphaSeq binding of Ab-14 heavy chain variants to a spike HR2 peptide

Source: Li et al. 2023 (doi:10.1038/s41467-023-39022-2), MIT Lincoln Laboratory and A-Alpha Bio; data file from the FLAb repository.

All variants were tested on one target, the spike HR2 peptide PDVDLGDISGINAS (SARS-CoV-2).

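Phage display of a naive human antibody library on the peptide gave the parent. The variants were designed computationally from a first round of random CDR variants and then made and measured. Group labels follow the data file (Ctrl: baseline library sampled from a position-specific scoring matrix, with some repeated check sequences; GPLM: also part of the Gaussian process libraries; Gen: genetic algorithm; a sequence that several methods proposed may carry one label only). AlphaSeq pools MATa yeast showing the antibodies with MATalpha yeast showing the peptide. The frequency of each diploid, read from paired DNA barcodes, reflects how well the two displayed proteins bind. Each replicate has its own calibration line, from reference interactions of the BCL2 family. The assay was run in six technical replicates.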

Parent scFv Ab-14: VH joined to VL by the linker GGGGSGGGGSGGGGS. Changes lie in the heavy chain CDRs alone.
VH: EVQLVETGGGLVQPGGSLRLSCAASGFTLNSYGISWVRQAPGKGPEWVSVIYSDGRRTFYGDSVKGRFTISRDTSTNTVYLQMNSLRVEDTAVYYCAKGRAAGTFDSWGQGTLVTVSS
VL: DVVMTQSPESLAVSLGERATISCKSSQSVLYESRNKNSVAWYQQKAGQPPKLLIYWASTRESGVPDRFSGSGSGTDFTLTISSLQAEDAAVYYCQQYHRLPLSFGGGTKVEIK

Positions count from residue 1 of the parent VH; F27Q puts Q in place of F.
The read-out is the apparent dissociation constant on a log10 scale (nM): the lower, the stronger.
The mean shown is taken over the replicates in which the pair was detected.
"nd" marks a missing value. The strain was present, yet no cells mated with the target were sequenced in that replicate, which points to weak or no binding.

F27Q/T28N/I34R [Ctrl]: nd, nd, nd, nd, nd, nd (controls 0 of 18).
T28N/S53A/R100K [Ctrl+GPLM_Gen]: 0.11, -0.92, 0.25, 0.11, -0.04, 0.24; -0.49, -0.99, -0.77, -0.77, -0.94, -0.83 (mean -0.42; controls 0 of 36).
T28S/N30L/T104L [Ctrl]: nd, nd, nd, 3.02, nd, nd (controls 0 of 18).
S31D/G99W/S107D [Ctrl]: nd, nd, nd, nd, nd, nd (controls 0 of 18).
G61L/A101N/F105P [Ctrl]: nd, nd, nd, nd, nd, nd (controls 0 of 18).
S31E/R56V/S63R/T104A [Ctrl]: nd, nd, nd, nd, nd, nd (controls 0 of 18).
T28S/G61S [Ctrl+GPLM_Gen]: -0.01, -0.08, 0.15, 0.16, 0.02, 0.19; 0.41, 0.62, -0.09, 0.12, 0.42, 0.23 (mean 0.18; controls 1 of 36).
T28M/R56I/S63F [Ctrl]: nd, 1.37, nd, nd, 2.90, nd (mean 2.13; controls 0 of 18).
F27V/S31M/G61I/S107I [Ctrl]: nd, nd, nd, nd, nd, nd (controls 0 of 18).
T28R/R100Q/D106E [Ctrl]: nd, nd, 1.25, nd, nd, 2.05 (mean 1.65; controls 0 of 18).
R100F/A101E [Ctrl]: 0.03, 0.66, 0.48, 1.02, 1.19, 2.33 (mean 0.95; controls 0 of 18).
S31D/R56E/G103Q [Ctrl]: nd, nd, nd, nd, nd, nd (controls 0 of 18).
G26T/S31E [Ctrl]: nd, nd, nd, 1.26, nd, nd (controls 0 of 18).
S53A/T58V/G99R [Ctrl]: nd, nd, nd, nd, nd, nd (controls 0 of 18).
T28N/S31Q/G61S [Ctrl]: nd, nd, nd, nd, nd, nd (controls 0 of 18).
N30Q/R100K/T104K [Ctrl]: nd, nd, nd, nd, nd, nd (controls 0 of 18).
S53A/G55P/R100G [Ctrl]: 1.75, nd, nd, nd, nd, nd (controls 0 of 18).
S31D/F59S [Ctrl]: nd, 0.96, 0.66, 0.76, 0.14, 0.57 (mean 0.62; controls 0 of 18).
G26R/L29I/A102Q [Ctrl]: nd, nd, nd, nd, nd, nd (controls 0 of 18).
S31E/S53F/A101L [Ctrl]: nd, nd, nd, nd, 0.39, nd (controls 0 of 18).
G99R/A101Q [Ctrl]: nd, 2.08, nd, nd, nd, nd (controls 1 of 18).
N30A/R56P/R100E [Ctrl]: nd, nd, nd, nd, nd, nd (controls 0 of 18).
R100K/G103F/D106E [Ctrl]: nd, nd, nd, nd, nd, nd (controls 1 of 18).
L29V/A101E [Ctrl]: 2.62, 1.47, 2.04, 2.63, 2.82, 2.01 (mean 2.26; controls 2 of 18).
G26K/R56W/G99R [Ctrl]: nd, nd, nd, nd, nd, nd (controls 0 of 18).
T28D/N30D/D54M/S63F/A101E [Ctrl]: nd, nd, nd, nd, nd, nd (controls 0 of 18).
Y60M [Ctrl]: nd, nd, nd, nd, nd, nd (controls 0 of 18).
F59R/A101N/S107L [Ctrl]: nd, nd, nd, nd, nd, nd (controls 0 of 18).
T28N/S31Q/F59M/G103V [Ctrl]: nd, nd, nd, nd, nd, nd (controls 0 of 18).
F27V/T58R/R100F/A102P [Ctrl]: nd, nd, nd, nd, nd, nd (controls 0 of 18).
R56F/G61M/R100S [Ctrl]: nd, nd, nd, nd, nd, nd (controls 0 of 18).
T28A/F59A [Ctrl]: nd, nd, nd, nd, nd, nd (controls 1 of 18).
T28S/A101D/S107Q [Ctrl]: 1.18, 1.60, 0.91, 1.23, 0.90, 1.40 (mean 1.20; controls 0 of 18).
G103F/F105S [Ctrl]: nd, nd, nd, nd, nd, nd (controls 0 of 18).
T28H/N30A/T104R/S107I [Ctrl]: nd, nd, nd, nd, nd, nd (controls 0 of 18).
G61H/S107W [Ctrl]: nd, 2.23, nd, nd, nd, nd (controls 1 of 18).
T58C/F59S/G61S/R100S [Ctrl]: nd, nd, 1.63, 2.56, nd, 1.84 (mean 2.01; controls 0 of 18).
T28D/S31M/R56L/G61H/G99V/R100W [Ctrl]: nd, nd, nd, nd, nd, nd (controls 0 of 18).
R56K/G61I/V64T/A102S [Ctrl]: nd, nd, nd, nd, nd, nd (controls 0 of 18).
N30S/R100Q/A101N/S107M [Ctrl]: nd, nd, nd, nd, nd, nd (controls 0 of 18).
T28I [Ctrl]: nd, nd, nd, nd, nd, 1.63 (controls 0 of 18).
T28N/N30E/I34R/G103V/T104R [Ctrl]: nd, nd, 0.45, nd, nd, nd (controls 0 of 18).
N30E/R56V/G103H [Ctrl]: nd, nd, nd, nd, nd, nd (controls 0 of 18).
N30R/G99T [Ctrl]: nd, nd, nd, nd, nd, nd (controls 0 of 18).
S31E/T58A/R100L [Ctrl]: 1.03, 2.25, 2.00, 1.18, 0.99, 1.07 (mean 1.42; controls 0 of 18).
F27D/V64F/R100F [Ctrl]: 2.50, nd, nd, nd, nd, nd (controls 1 of 18).
T28S/V64F/R100Y [Ctrl]: nd, 1.77, nd, nd, nd, 2.10 (mean 1.94; controls 0 of 18).
T28P/S31D/A101Q [Ctrl]: 1.28, 1.55, 0.91, 1.00, 1.43, 1.07 (mean 1.21; controls 0 of 18).
F27Q/R100W [Ctrl]: nd, nd, nd, nd, nd, nd (controls 0 of 18).
T28E/S31E/T58N [Ctrl]: 1.10, 1.81, 2.01, 1.40, 1.53, 3.05 (mean 1.82; controls 2 of 18).
I34S/A101V [Ctrl]: 0.05, 0.21, 0.06, 0.27, 0.89, 0.72 (mean 0.37; controls 0 of 18).
S53A/G61L/S107L [Ctrl]: 0.59, 0.34, 0.11, -0.01, 0.13, 0.85 (mean 0.34; controls 1 of 18).

For reference, 4 entries of the list once more:

{"changes": "T28I", "group": "Ctrl", "log10 Kd, replicates": "nd, nd, nd, nd, nd, 1.63", "mean, log10 nM": "1.63", "signal with controls": "0 of 18"}
{"changes": "G26T/S31E", "group": "Ctrl", "log10 Kd, replicates": "nd, nd, nd, 1.26, nd, nd", "mean, log10 nM": "1.26", "signal with controls": "0 of 18"}
{"changes": "T28M/R56I/S63F", "group": "Ctrl", "log10 Kd, replicates": "nd, 1.37, nd, nd, 2.90, nd", "mean, log10 nM": "2.13", "signal with controls": "0 of 18"}
{"changes": "R56K/G61I/V64T/A102S", "group": "Ctrl", "log10 Kd, replicates": "nd, nd, nd, nd, nd, nd", "mean, log10 nM": "nd", "signal with controls": "0 of 18"}

Where one sequence has several entries in the source, the replicates are listed entry by entry, parted by semicolons.
Of ten entries with the parent sequence, four were seen in most replicates (averages 0.34 to 2.37), three in one and three in none, so single entries are noisy.
In the paper, a design with two or fewer of six values counts as a poor binder.
A sequence measured in both rounds can read differently, since the two assays cover different ranges.
Background: pairings of all heavy chain designs with three empty control strains gave a value in 1% of cases (median 2.08, 5th percentile 0.84). Values in that range, when seen in few replicates, are hard to tell from nonspecific mating. The control count says in how many pairings with the empty strains this scFv gave a signal.